Data: US9855245B2, “Methods for improving lipid profiles using atrasentan” (AbbVie Inc., priority 2013, dated 2018)

Experiments:
[1] = system: subjects with type 2 diabetes and nephropathy; assay: Example 3: Phase 2b randomized, double-blind, placebo-controlled 8-week study with thoracic bioimpedance; type: in vivo, human
[2] = system: subjects with type 2 diabetes and nephropathy; assay: Example 1: Phase 2b randomized, double-blind, placebo-controlled 12-week clinical study
[3] = system: subjects with type 2 diabetes and nephropathy; assay: Example 2: Phase 2b randomized, double-blind, placebo-controlled 12-week study conducted in Japan
[4] = both doses (0.75 mg and 1.25 mg), within 2 weeks, sustained over 12 weeks

`CCCCN(CCCC)C(=O)CN1C[C@H](c2ccc3c(c2)OCO3)[C@@H](C(=O)O)[C@@H]1c1ccc(OC)cc1` [Atrasentan, (2R,3R,4S)-4-(1,3-benzodioxol-5-yl)-1-[2-(dibutylamino)-2-oxoethyl]-2-(4-methoxyphenyl)pyrrolidine-3-carboxylic acid] was tested, and the “mean eGFR, placebo vs either atrasentan treatment group (repeated-measures analysis)” value ([1]; 0.5 mg and 1.25 mg) was “no statistically significant differences”, the “change from baseline to Week 8 in log-transformed UACR (primary endpoint), treatment differences” value ([1]; 0.5 mg and 1.25 mg vs placebo) was “not statistically significantly different from placebo” and the “reduction in UACR” value ([1]; both doses (0.5 mg and 1.25 mg), within 2 weeks, sustained over 8 weeks for 1.25 mg) was “approximately 30%”. For the same molecule, the “mean systolic blood pressure, differences from placebo” value ([2]; 0.75 mg and 1.25 mg) was “not statistically significant at any time point”, the “mean ambulatory diastolic blood pressure, differences from placebo” value ([2]; 0.75 mg and 1.25 mg, Weeks 6 and 10) was “statistically significant at both time points” and the “mean eGFR change from baseline, atrasentan groups vs placebo” value ([2]; 0.75 mg and 1.25 mg, each postbaseline time point) was “no statistically significant differences”. The “reduction in UACR” value [2, 4] was “more than 30%”, the “mean diastolic blood pressure, differences between atrasentan and placebo” value ([3]; 0.75 mg and 1.25 mg) was “not statistically significant” and the “mean systolic blood pressure, differences between treatment groups” value ([3]; 0.75 mg and 1.25 mg) was “no statistically significant differences between treatment groups”. The “reduction in UACR” value [3, 4] was “more than 30%”.
